Experimental data from article PMC9198545, “Pharmacokinetics and Pharmacodynamics of Fungal Defensin NZX Against Staphylococcus aureus-Induced Mouse Peritonitis Model” (Frontiers in Microbiology, 2022).

System: S. aureus E48
Format: in vivo, mouse
Conditions: 20 mg/kg intravenous single injection 2 h post-infection; 2 × 10^8 CFU/ml, 0.5 ml i.p.; 7 days; n = 6

## CCC[C@@H]1C[C@@H](C(=O)N[C@@H]([C@H]2O[C@H](SC)[C@H](O)[C@@H](O)[C@H]2O)[C@H](C)Cl)N(C)C1 [Clindamycin]
  survival rate of the mice: all the mice were dead
